Results: ChEMBL document CHEMBL6182923, “Optimization of 1-Methyl-3-(pyridin-3-yl)-1H-indol Derivatives as ROR1 Inhibitors with Improved Activity and Selectivity” (J Med Chem, 2025)

Sequences of proteins named here, by UniProt entry; tags and fusion partners are left off. A change or cut given only in a name is not applied to a line headed by its entry.
Platelet-derived growth factor receptor alpha (Homo sapiens), P16234, UniProt P16234, whole entry V561D: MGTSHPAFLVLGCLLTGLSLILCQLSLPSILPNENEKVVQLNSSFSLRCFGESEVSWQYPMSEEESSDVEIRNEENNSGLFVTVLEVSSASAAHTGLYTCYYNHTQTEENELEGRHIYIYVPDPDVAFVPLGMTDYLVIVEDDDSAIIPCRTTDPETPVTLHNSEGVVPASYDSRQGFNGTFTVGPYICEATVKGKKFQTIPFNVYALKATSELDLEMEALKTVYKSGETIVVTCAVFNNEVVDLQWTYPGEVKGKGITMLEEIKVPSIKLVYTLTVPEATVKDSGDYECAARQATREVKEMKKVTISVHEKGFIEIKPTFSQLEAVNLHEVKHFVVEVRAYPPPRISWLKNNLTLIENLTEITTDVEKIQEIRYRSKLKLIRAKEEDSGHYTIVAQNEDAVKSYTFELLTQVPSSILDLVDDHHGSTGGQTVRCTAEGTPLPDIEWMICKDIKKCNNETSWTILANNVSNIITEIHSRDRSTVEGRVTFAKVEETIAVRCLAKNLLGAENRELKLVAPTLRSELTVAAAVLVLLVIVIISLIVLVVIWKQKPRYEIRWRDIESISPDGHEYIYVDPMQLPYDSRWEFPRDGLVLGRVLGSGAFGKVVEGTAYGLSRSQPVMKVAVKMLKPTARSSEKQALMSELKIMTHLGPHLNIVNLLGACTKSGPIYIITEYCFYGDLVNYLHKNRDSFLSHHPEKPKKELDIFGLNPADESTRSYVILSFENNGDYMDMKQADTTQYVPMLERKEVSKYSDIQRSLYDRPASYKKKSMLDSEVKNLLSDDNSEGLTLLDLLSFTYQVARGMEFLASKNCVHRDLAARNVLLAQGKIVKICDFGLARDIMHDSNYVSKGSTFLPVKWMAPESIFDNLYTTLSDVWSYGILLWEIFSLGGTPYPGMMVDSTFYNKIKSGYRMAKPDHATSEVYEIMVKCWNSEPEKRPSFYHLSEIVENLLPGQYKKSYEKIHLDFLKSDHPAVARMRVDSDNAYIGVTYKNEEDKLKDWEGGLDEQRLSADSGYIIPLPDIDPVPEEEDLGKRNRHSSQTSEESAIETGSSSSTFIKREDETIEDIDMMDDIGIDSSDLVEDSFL
UniProt P48729: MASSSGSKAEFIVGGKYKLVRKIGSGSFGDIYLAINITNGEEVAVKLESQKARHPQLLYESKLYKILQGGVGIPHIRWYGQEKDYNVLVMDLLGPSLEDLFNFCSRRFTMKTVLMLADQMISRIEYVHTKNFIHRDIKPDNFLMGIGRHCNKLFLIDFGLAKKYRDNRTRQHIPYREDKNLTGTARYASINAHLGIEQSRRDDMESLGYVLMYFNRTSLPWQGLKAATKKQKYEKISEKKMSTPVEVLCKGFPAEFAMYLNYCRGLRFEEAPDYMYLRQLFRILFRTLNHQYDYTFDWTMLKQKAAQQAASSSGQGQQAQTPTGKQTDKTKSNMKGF
UniProt P09619, whole entry: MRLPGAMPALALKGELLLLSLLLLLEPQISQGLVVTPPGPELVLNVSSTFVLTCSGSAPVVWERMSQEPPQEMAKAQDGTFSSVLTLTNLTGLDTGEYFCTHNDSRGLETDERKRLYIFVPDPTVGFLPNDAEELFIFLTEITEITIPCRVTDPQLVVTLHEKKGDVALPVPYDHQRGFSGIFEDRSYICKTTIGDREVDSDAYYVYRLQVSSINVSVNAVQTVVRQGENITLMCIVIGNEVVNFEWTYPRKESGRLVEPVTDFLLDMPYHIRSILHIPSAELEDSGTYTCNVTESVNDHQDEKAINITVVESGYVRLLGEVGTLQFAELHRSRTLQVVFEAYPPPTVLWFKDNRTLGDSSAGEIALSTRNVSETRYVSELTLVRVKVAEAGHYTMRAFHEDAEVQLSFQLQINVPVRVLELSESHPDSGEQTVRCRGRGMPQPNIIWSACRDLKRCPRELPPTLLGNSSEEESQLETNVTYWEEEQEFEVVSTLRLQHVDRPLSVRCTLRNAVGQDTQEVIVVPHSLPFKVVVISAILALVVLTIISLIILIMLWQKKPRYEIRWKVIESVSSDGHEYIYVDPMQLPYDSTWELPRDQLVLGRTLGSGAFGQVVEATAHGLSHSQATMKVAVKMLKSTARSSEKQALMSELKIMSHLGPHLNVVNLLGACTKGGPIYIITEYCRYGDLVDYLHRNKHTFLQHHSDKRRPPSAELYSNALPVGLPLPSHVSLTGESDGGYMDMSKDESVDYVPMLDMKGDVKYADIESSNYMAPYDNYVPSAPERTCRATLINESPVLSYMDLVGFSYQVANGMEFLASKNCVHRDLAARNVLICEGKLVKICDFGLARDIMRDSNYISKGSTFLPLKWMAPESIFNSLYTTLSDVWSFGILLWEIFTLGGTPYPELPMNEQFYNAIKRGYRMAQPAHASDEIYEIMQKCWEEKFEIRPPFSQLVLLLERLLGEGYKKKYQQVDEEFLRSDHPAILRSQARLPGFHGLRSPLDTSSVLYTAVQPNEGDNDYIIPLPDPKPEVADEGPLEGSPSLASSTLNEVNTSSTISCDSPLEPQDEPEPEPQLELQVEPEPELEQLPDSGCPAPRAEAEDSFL

How the values were obtained:
[1] = system: Platelet-derived growth factor receptor alpha (Homo sapiens), P16234 [V561D]; experiment: Inhibition of human PDGFR alpha V561D at 1 uM measured after 40 mins in presence of (gamma-33P)-ATP by scintillation counting analysis relative to control
[2] = target: T1, Megakaryocyte-associated tyrosine-protein kinase (Homo sapiens) (UniProt P42679); experiment: Inhibition of human MATK at 1 uM measured after 40 mins in presence of (gamma-33P)-ATP by scintillation counting analysis relative to control
T1 sequence (whole entry): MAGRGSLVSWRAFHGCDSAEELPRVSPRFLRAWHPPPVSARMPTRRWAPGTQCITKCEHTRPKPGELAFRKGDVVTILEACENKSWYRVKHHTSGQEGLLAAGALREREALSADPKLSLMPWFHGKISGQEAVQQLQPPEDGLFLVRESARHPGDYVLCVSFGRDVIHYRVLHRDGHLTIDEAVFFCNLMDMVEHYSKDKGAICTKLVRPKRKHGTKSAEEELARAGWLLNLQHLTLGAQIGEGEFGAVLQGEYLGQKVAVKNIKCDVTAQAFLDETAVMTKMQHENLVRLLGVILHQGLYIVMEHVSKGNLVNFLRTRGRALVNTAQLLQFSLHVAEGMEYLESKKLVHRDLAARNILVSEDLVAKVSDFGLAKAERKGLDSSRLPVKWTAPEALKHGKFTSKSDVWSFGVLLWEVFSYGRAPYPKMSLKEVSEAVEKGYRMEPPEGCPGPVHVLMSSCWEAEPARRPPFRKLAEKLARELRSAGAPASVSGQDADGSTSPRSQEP

[3] = target: Actin-related protein 2 (Homo sapiens) (UniProt P61160); experiment: Inhibition of human ACTR2 at 1 uM measured after 40 mins in presence of (gamma-33P)-ATP by scintillation counting analysis relative to control
[4] = target: Casein kinase I isoform alpha (Homo sapiens) (UniProt P48729); experiment: Inhibition of human CK1alpha at 1 uM measured after 40 mins in presence of (gamma-33P)-ATP by scintillation counting analysis relative to control
[5] = target: Platelet-derived growth factor receptor beta (Homo sapiens) (UniProt P09619); experiment: Inhibition of human PDGFRbeta at 1 uM measured after 40 mins in presence of (gamma-33P)-ATP by scintillation counting analysis relative to control

inhibition [1] [%] | inhibition [2] [%] | inhibition [3] [%] | inhibition [4] [%] | inhibition [5] [%] | SMILES
92 | – | – | – | – | COCOc1ccc(-c2cn(C)c3cc(NC(=O)c4ccc(C)c(C#Cc5ccnc6[nH]ncc56)c4)ccc23)cc1
11 | 20 | 20 | 20 | 20 | COc1ccc(-c2cn(C)c3cc(NC(=O)c4ccc(C)c(Nc5nccc(-c6ccc(OC7CC7)cc6)n5)c4)ccc23)cn1
